# Tested on: FaDu cells (wild type EGFR) tumor xenograft
# Conditions: all dose groups of the treatment
# Experimental: Xenotransplantation of human cancer cells into immunocompromised mice is a gold-standard model used for pre-clinical oncology research and testing of anti-cancer therapies. In general, human cancer cell lines are injected below the skin of the mouse. […] The primary outcome parameter is growth inhibition by the drug, for which tumor size is measured over time, often externally with calipers. After the tumor reaches a certain size, the mice are euthanized. Drug effects on the tumor are further analyzed on a tissue level or molecular level (e.g., DNA, proteins). The primary outcome parameter of a xenograft model for testing drug efficacy is the growth of the treated tumor versus control. Typically, xenograft tumors grow from 100 mm^3 (6 mm diameter) to 1000 mm^3 (12 mm diameter) in several weeks. The growth rate often declines with larger tumor sizes, as opposed to exponential growth in (2D) in vitro experiments. Tumor growth inhibition varies per drug and implanted cell line. […]
# Tumor volume (mm3) V=½×(a×b)^2, where a represents the long diameter and b represents the short diameter. […] The T/C value (%) can also be calculated as T/C %=TTW/CTW×100%, where TTW is the average tumor weight at the end of the treatment group experiment and CTW is the average tumor weight at the end of the control group experiment.
substance,measurement,value
paclitaxel+carboplatin,toxicity / safety assessment,more toxic and is less safe than SI-B001 single-agent

# From patent publication US20240398943A1, “METHODS OF TREATING CANCER AND THE PHARMACEUTICAL COMPOSITIONS THEREOF” (SYSTIMMUNE, INC., priority 2021, published 2024)
